The list shows a part of the results, in another mix than the full data. Active and inactive are the calls of the source. Rule as the data show it: active = inhibition above about 22% (passing the limit was not always enough); inactive = the rest.

Protein sequences, listed by entry. Tags and fused reporters are not part of them.
UniProt P35372, whole entry, looked up: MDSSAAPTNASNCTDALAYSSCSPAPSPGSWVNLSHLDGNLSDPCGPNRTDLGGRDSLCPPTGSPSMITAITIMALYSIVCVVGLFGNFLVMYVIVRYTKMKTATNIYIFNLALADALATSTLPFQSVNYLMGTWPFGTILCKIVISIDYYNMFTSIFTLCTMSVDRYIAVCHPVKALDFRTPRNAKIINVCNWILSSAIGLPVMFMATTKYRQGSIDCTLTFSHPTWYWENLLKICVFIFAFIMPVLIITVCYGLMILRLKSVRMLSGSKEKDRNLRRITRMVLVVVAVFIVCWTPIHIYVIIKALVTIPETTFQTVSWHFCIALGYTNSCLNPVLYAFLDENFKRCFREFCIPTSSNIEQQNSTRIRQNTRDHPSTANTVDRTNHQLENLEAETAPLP
UniProt P41143, whole entry, looked up: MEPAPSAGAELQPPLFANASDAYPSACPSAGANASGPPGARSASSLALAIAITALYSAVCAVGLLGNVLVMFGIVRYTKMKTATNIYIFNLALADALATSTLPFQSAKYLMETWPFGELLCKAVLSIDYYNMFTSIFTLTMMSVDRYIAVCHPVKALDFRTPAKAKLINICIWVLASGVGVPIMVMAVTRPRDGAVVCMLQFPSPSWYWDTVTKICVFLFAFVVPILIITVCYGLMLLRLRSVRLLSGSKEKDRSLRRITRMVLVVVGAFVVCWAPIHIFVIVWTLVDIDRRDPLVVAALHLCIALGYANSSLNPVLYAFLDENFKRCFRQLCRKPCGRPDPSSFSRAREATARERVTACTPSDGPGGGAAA

Broadly, the inhibition is the relative decrease from the control value, in per cent.

The target in the test is Mu-type opioid receptor (Homo sapiens) + Delta-type opioid receptor (Homo sapiens) (UniProt P35372+P41143). In words: OPRM1-OPRD1 heterodimer inverse agonism – cell-based, luminescence, primary screen (AID 504357).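 Also: 0% = cells with DMSO and 100% = wells without cells with DMSO.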 The following applies: cell-based MOR-DOR heterodimer luminescence, at 9.3 µM, stronger effect = higher value.
`Cc1ccc(NC(=O)Cn2cnc3c(NCc4ccccc4)ncnc32)cc1C`: the inhibition is inactive: 9.81%.

`Cn1c(=O)c2ncn(CC(=O)NCCOCc3ccccc3Cl)c2n(C)c1=O`: the inhibition is inactive: 16.3%. Next, `O=C(Cn1c(-c2ccccc2Cl)nc2ccccc21)Nc1cccc(Cl)c1`: inactive: 3.64%. In the case of `Cn1c(=O)c2c(ncn2CC(=O)Nc2ccccc2Sc2ccccc2)n(C)c1=O` it was inactive: 18.7%; in that of `Cn1c(=O)c2c(ncn2CC(=O)Nc2ccc(Cl)cc2Cl)n(C)c1=O`, inactive: 11%. As to `COc1ccccc1N1CCN(C(=O)Cn2cnc3c2c(=O)n(C)c(=O)n3C)CC1`, the inhibition was inactive: 17.2%. In the case of `Cn1c(=O)[nH]c(=O)c2c1nc(CN1CCN(c3cccc(Cl)c3)CC1)n2CCN1CCOCC1` it was inactive: -2.72%; in that of `CSc1nc(N)nc2c1ncn2CC(=O)NCC1CCCO1` (stereo unspecified), inactive: 19.8%. Regarding `CCOCN(C(=O)Cn1c(COC)nc2ccccc21)c1c(C)cccc1CC`, the inhibition was inactive: 9.44%. Next, `Cc1ccc2c(c1)C1C[N+](C)(CC(=O)Nc3ccccc3Cl)CCC1N2C(=O)c1ccccc1Cl` (stereo unspecified): inactive: 12.9%; `Nc1cccc([As](=O)(O)c2ccccc2)c1`: inactive: 16.5%; `Cc1ccc(S(=O)(=O)N2CCN(C(=O)Cn3cnc4c3c(=O)n(C)c(=O)n4C)CC2)cc1C`: inactive: 3.59%. Next, `Cc1ccc2c(c1)C1CN(C)CCC1N2C(=O)Cn1nnc(-c2ccccc2F)n1` (stereo unspecified): inactive: 6.02%; `Cn1c(CNc2nc3ccccc3n2CCN2CCCCC2)nc2ccccc21`: inactive: 0.23%; `CCC(=O)N1CCn2c1nc1ccccc12`: inactive: 9.93%. In the case of `NC(=O)Cn1c(S(=O)(=O)Cc2ccccc2)nc2ccccc21` it was inactive: 11.9%. In the case of `O=[As](O)(c1cccs1)c1cccs1`, the inhibition is inactive: 17.3%.

For the compound `CCc1ccccc1NC(=O)CSc1nc2ccccc2n1CC(=O)N1CCCC1`, the inhibition is inactive: 1.89%. Next, `Cc1ccc(OCC(=O)OC2CN3CCC2CC3)cc1` (stereo unspecified): inactive: 9.21%; `C[C@H](O)[C@@H]1C(=O)N2CCc3ccc(N4CCN(C)CC4)cc3[C@@H]2C[C@@H]1N(C)C(=O)Nc1cc(Cl)cc(Cl)c1`: inactive: 6.34%; `Cc1ccc(C(=O)N(C)c2ccc(OCC(=O)N3c4ccc(C)cc4C4CN(C)CCC43)cc2)cc1` (stereo unspecified): inactive: 10.3%. Next, `COC(=O)[C@H](Cc1ccc(O)cc1)NC(=O)Cn1cnc2c(OCc3ccccc3)ncnc21`: inactive: 5.03%; `CC(C)C[C@H](NC(=O)N1CCn2c1nc1ccccc12)C(=O)NCc1ccco1`: inactive: 10.5%; `Cc1ccc2c(c1)C1CN(C)CCC1N2C(=O)c1ccccc1NS(=O)(=O)c1ccc(F)cc1C` (stereo unspecified): inactive: -0.02%. Next, `O=P1(Nc2ccc(Br)cn2)COc2ccccc2OC1`: inactive: 6.34%; `NS(=O)(=O)c1cccc(NC(=O)COC(=O)C(O)(c2ccccc2)c2ccccc2)c1`: inactive: 3.34%. In the case of `Cc1cc(NC(=O)Cn2cnc3c2c(=O)n(C)c(=O)n3C)n(-c2ccccc2)n1`, the inhibition was inactive: 0.81%. `O=C(NCCn1c(-c2ccncc2)nc2ccccc21)[C@H]1CCCN1c1nc(CN2CCCCC2)cs1`: the inhibition is inactive: -1.68%.

For `CC(C)N(C(=O)Cn1c(SCC(=O)NCc2ccc3c(c2)OCO3)nc2ccccc21)C(C)C`, the inhibition was inactive: 15.7%. In the case of `O=C1CC(N2CCC(n3c(=O)[nH]c4ccccc43)CC2)C(=O)N1c1ccc(F)cc1` (stereo unspecified) it was inactive: 10.8%. Next, `CC(c1ccccc1)N1CCn2c(nc3cc(NC(=O)c4cccs4)ccc32)C1` (stereo unspecified): inactive: 7.82%.

Regarding `CN(C)CCn1cnc2c1c(=O)[nH]c(=O)n2Cc1ccccc1`, the inhibition was inactive: 10.9%. For `O=S(=O)(Nc1ccc2c(c1)nc1n2CCN(Cc2ccccc2)C1)c1ccc(Cl)cc1`, the inhibition was inactive: -0.26%. As to `O=C(Cn1cnc2ccccc21)N/N=C/c1cccs1`, the inhibition was inactive: 0.33%. In the case of `CCc1ccccc1NC(=O)CSc1nc2ccccc2n1CC(=O)N(C)C` it was inactive: 18.8%; in that of `N=c1n(CCN2CCOCC2)c2ccccc2n1Cc1ccccc1Br`, inactive: 20%. Next, `Cc1ccc2c(c1)C1CN(C)CCC1N2C(=O)/C(C#N)=C/c1ccc2c(c1)OCO2` (stereo unspecified): inactive: 2.18%; `COC(=O)CSc1nc2ccccc2n1CC(=O)N(C(C)C)C(C)C`: inactive: 6.47%; `Cc1ccc2c(c1)C1CN(C)CCC1N2C(=O)c1ccc(Br)o1` (stereo unspecified): inactive: 6.5%. Next, `CCN(CC)C(=O)N1CCn2c(nc3ccccc32)C1`: inactive: 2.41%; `Cn1c(=O)[nH]c(=O)c2c1nc(N1CCOCC1)n2CCN1CCOCC1`: inactive: 17.6%. Regarding `O=P1(Nc2ncccn2)COc2ccccc2OC1`, the inhibition was inactive: 0.03%.

Take `NNC(=O)Cn1c(COc2ccc(Cl)cc2)nc2ccccc21`: the inhibition was inactive: -23.5%. With `NC(=O)CC(NC(=O)Cc1cccc2ccccc12)c1ccc(NC2CCN(Cc3ccccc3)CC2)c([N+](=O)[O-])c1` (stereo unspecified), the inhibition was inactive: 1.44%. In the case of `N=c1n(CCN2CCOCC2)c2ccccc2n1CC(O)COc1ccccc1` (stereo unspecified) it was inactive: 20.6%. In the case of `COC(CNC(=O)CC1C(=O)N(Cc2ccccc2)C(C)c2nc3ccccc3n21)OC` (stereo unspecified) it was inactive: 9.47%. Next, `COC(=O)[C@@H](Cc1ccccc1)NC(=O)Cn1cnc2c(SC)nc(N)nc21`: inactive: 13%; `Fc1ccc2c(c1)nnn2C1CCN(Cc2nnnn2C2CCCCC2)CC1`: inactive: 3.62%. On to `Cc1nc2ccccc2n1CC(=O)NCc1ccccc1`, for which the inhibition is inactive: 1.64%. Next, `CCOC(=O)C1CCN(C(=O)CC2C(=O)N(Cc3ccccc3)C(C)c3nc4ccccc4n32)CC1` (stereo unspecified): inactive: 21.1%; `Cn1c(=O)c2c(ncn2CC(=O)N/N=C/c2cn[nH]c2-c2ccc(F)cc2)n(C)c1=O`: inactive: -2.36%. Next, `Cn1c(=O)c2c(ncn2CC(=O)N/N=C/C=C/c2ccco2)n(C)c1=O`: inactive: 15.8%. In the case of `CCOC(=O)CNC(=S)N1CCn2c(nc3ccccc32)C1` it was inactive: 15.9%; in that of `CC(C)Sc1nc2ccccc2n1CC(=O)NCc1ccc2c(c1)OCO2`, inactive: 1.11%; in that of `Cn1c(=O)n(Cc2ccc(F)cc2)c(=O)c2c1nc1n2CCN1Cc1ccco1`, inactive: -6.67%. For `COc1cccc(C(=O)CSc2nc3ccccc3n2CC(=O)N(C(C)C)C(C)C)c1`, the inhibition was inactive: 15.5%.

(Values after PubChem BioAssay AID504357 (The Scripps Research Institute Molecular Screening Center, 2011).)
